Data from paper PMC3199867, “Targeting surface nucleolin with multivalent HB-19 and related Nucant pseudopeptides results in distinct inhibitory mechanisms depending on the malignant tumor cell type” (BMC Cancer, 2011).

System: T29
Test: Cell growth / multiplication (viable cell number)
Format: cell-based, murine
Procedure: Human breast (MDA-MB-231, MDA-MB-435 [37]), prostate (LNCaP, from American Type Culture Collection, ATCC, Rockville, MD), and cervical (HeLa) epithelial cancer cells were grown in DMEM-glutamax medium (Gibco Invitrogen, Cergy-Pontoise, France) containing GlutaMAX™, 4.5 g/l glucose and supplemented with 10% heat-inactivated (56°C for 30 min) fetal bovine serum (FBS; Hyclone, Thermo Fisher Scientific, Inc). Human SW480 cells are derived from a grade 3-4 colon carcinoma, while the highly metastatic counterpart SW620 is established from the lymph node of a person. Both SW480 and SW620 cells (obtained from Francis Raul, IRCAD) are highly tumorigenic in nude mice. They were cultured in D-MEM, 10% FCS. The murine melanoma TIII cell line was obtained from Armelle Prévost-Blondel. Murine T29 lymphoma cells, obtained from Philippe Kastner (CNRS, Strasbourg), have been established from Ik^L/L tumors from mice carrying a hypomorphic mutation (Ik^L/L) in the Ikaros gene encoding a transcription factor that regulates lymphocyte differentiation, and acts also as a tumor suppressor in T lymphocytes. The T29 cells were cultured in RPMI medium containing 25 mM Hepes pH 7.6, 1 mM sodium pyruvate, and 10% FCS. […] Cell death was monitored conveniently by uptake of the trypan blue dye due to plasma membrane permeability of dying and/or dead cells.
Figure 7 HB-19 and related multivalent Nucant pseudopeptides induce cell death associated with internucleosomal DNA fragmentation. […] Cell cultures (in triplicate) were monitored for viable cell number daily for 3 days. […] T29 cells seeded at 100,000/ml in 2 ml in the absence (0 μM) or presence of N7 at various concentrations 2.5, 5, 10 and 20 μM were cultured for 3 days and the number of viable cells was determined at day 1, 2, and 3 post-seeding. […] The nuclear extracts were analyzed by immunoblotting using anti-Nt Ab (Methods). […]

In the case of CC(=O)N[C@@H](CCCCNC(=O)[C@H](CCCNC(=N)N)NC(=O)[C@@H]1CCCN1C[C@@H](N)CCCCN)C(=O)NC(C)(C)C(=O)NCC(=O)N[C@@H](CCCCNC(=O)[C@H](CCCNC(=N)N)NC(=O)[C@@H]1CCCN1C[C@@H](N)CCCCN)C(=O)NC(C)(C)C(=O)NCC(=O)N[C@@H](CCCCNC(=O)[C@H](CCCNC(=N)N)NC(=O)[C@@H]1CCCN1C[C@@H](N)CCCCN)C(=O)NC(C)(C)C(=O)NCC(=O)N[C@@H](CCCCNC(=O)[C@H](CCCNC(=N)N)NC(=O)[C@@H]1CCCN1C[C@@H](N)CCCCN)C(=O)NC(C)(C)C(=O)NCC(=O)N[C@@H](CCCCNC(=O)[C@H](CCCNC(=N)N)NC(=O)[C@@H]1CCCN1C[C@@H](N)CCCCN)C(=O)NC(C)(C)C(=O)NCC(=O)N[C@@H](CCCCNC(=O)[C@H](CCCNC(=N)N)NC(=O)[C@@H]1CCCN1C[C@@H](N)CCCCN)C(=O)NC(C)(C)C(=O)NCC(N)=O [Nucant N6L], the “% Growth inhibition After 3 days” value (T29, N6L 10 μM, viable cell number vs untreated control, mean of at least 2 independent experiments) is reported as 95%, the IC50 (T29 cells, 0-20 μM, number of viable cells at 3 days post-treatment, read-out: Cell number: IC50 72 hours post-passage) is reported as 2 to 4 µM and the “activity (cell death and inhibition of proliferation), fold higher compared to N6 and N7” value (T29 cells, IC50 values at 24 and 72 hours) is reported as 2 to 4 fold.
